Target: Serotonin receptor 2a and 2c (5HT2A and 5HT2C) (Rattus norvegicus) (UniProt P08909+P14842)
Test: Selectivity ratio towards Ki of 5-hydroxytryptamine 2A receptor to 5-hydroxytryptamine 2C receptor
Assay type: protein assay

Protein sequences, listed by entry. Tags and fused reporters are not part of them. Lines headed by an entry give the natural chain unless they say otherwise; changes in a name come on top.
UniProt P08909: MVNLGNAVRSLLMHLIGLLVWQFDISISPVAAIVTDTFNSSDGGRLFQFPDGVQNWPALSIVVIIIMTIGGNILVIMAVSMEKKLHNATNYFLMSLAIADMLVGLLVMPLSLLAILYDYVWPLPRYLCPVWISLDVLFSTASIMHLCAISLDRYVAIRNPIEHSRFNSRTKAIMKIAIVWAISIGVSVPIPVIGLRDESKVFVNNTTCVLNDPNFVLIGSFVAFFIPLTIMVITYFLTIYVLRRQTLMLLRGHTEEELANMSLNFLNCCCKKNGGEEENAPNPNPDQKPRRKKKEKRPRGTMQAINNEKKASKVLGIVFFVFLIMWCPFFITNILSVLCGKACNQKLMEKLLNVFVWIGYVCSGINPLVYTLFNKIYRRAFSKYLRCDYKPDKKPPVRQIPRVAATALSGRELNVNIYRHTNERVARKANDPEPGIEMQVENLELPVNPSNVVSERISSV
UniProt P14842, whole entry, looked up: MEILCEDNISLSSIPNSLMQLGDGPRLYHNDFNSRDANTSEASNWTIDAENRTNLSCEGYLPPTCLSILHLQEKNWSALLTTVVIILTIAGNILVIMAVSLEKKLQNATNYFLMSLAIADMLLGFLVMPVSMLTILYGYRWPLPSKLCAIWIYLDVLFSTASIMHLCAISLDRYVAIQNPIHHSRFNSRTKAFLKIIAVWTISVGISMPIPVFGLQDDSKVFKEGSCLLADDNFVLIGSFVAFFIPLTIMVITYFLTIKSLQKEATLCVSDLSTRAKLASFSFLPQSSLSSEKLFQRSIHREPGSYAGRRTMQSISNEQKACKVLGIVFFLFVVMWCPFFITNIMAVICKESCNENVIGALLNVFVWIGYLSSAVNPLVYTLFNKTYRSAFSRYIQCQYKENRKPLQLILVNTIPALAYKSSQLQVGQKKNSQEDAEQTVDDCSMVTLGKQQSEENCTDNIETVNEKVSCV

Row | Ratio | SMILES
1 | 38 | O=C(c1ccc(F)cc1)C1CCN(CCC2CCCc3ccccc3C2=O)CC1 (stereo not drawn)
2 | 39 | O=C1CC(CN2CCC(c3noc4cc(F)ccc34)CC2)Cc2ccccc21 (stereo not drawn)
3 | 66 | O=C(c1ccc(F)cc1)C1CCN(CCC2Cc3ccccc3C2=O)CC1 (stereo not drawn)

— ChEMBL document CHEMBL1135402, “New serotonin 5-HT(2A), 5-HT(2B), and 5-HT(2C) receptor antagonists: synthesis, pharmacology, 3D-QSAR, and molecular modeling of (aminoalkyl)benzo and heterocycloalkanones” (J Med Chem, 2002)
